Measured values: US20180185360A1, “CGRP RECEPTOR ANTAGONIST COMPOUNDS FOR TOPICAL TREATMENT OF SKIN DISORDERS” (GALDERMA RESEARCH & DEVELOPMENT, priority 2015, published 2018)

Tested on: αCGRP-induced skin blood perfusion increase
Assay: CGRP-induced mice model of vasodilatation (Laser Doppler skin blood perfusion, right ear)
Type: in vivo, BALB/c mice
Conditions: after intravascular injection of αCGRP 20 μg/kg; p=0.0014
Procedure: This study has been conducted on BALB/c mice, 5 mice per group have been used. Animals were topically treated with multiple doses of MK3207 (0.003% to 3%) in ethanol or with ethanol alone (20 μl, right ear), 90 minutes before the intravenous injection of αCGRP 20 μg/kg (2 hours before sampling).
Anaesthesia was performed 15 minutes before the intravenous injection of αCGRP or NaCl 0.9%. Body temperature was maintained at 35° C.-37° C. using an automated heating pad. Images were obtained from Laser Doppler perfusion imaging PIM3 (Perimed, France). For each mouse, the skin blood perfusion was evaluated every minute on the right ear. The laser beam of the PIM3 scanned a skin area of 2×2 cm. Prior to the treatment, 2 scans were performed.
The duration of the recording was 22 minutes in total.
The blood perfusion is mapped as colour coded images at intervals of 1 min. For each mouse ear, the area corresponding to the internal part of the ear is defined and adjusted for each image. […]
The software calculates the erythematous surface (S) and the mean of the blood perfusion intensity (I) in this surface for the region of interest for all the images. […] For each time of kinetic, the relative area of blood perfusion is calculated as follow: Relative area of perfusion=(I/I ref)×S
And the AUC is calculated from t=0 to t=15 min.

## αCGRP: Calcitonin gene-related peptide, injected intravenously to induce vasodilatation (ACDTATCVTHRLAGLLSRSGGVVKNNFVPTNVGSKAF; Calcitonin gene-related peptide 1; UniProt P06881 83-119, looked up) [reference compound]
  increase of the basal blood perfusion in the skin: 242%
